scFv variants of Ab-14 (heavy chain) against a SARS-CoV-2 spike peptide

Values reported by Engelhart et al. 2022, doi:10.1038/s41597-022-01779-4 (FLAb copy).

Antigen: PDVDLGDISGINAS, a 14-residue peptide of the SARS-CoV-2 spike HR2 region.

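In library AAYL49, one, two or three CDR residues were substituted; doubles and triples were drawn at random. Affinity was read by AlphaSeq, a pooled yeast mating assay with surface-displayed partners. Mating (16 h, 30 °C) was followed by selection of diploids and sequencing of their barcodes. Scores were corrected for input abundance and mapped to Kd with protein pairs of known affinity run in the same pool. Each pool was mated in three replicate cultures.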

Parent: Ab-14, a human scFv built as VH, a (GGGGS)3 linker, VL. Only the CDRs of the heavy chain vary.
VH: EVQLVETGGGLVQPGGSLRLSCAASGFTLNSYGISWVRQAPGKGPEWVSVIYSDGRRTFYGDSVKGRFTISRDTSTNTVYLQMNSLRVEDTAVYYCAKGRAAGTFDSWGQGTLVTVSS
VL: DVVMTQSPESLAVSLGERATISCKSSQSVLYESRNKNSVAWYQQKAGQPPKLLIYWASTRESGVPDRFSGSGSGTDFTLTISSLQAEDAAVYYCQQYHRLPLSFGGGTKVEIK

Changes read parent residue, position, new residue, counted from the first residue of the VH shown. This list gathers variants with a substitution at I34 (VH, numbered from residue 1). Values are log10 of the apparent Kd in nM; lower means stronger binding. A mean of the replicates is given; it leaves out those without a signal. Where no diploid with the target was found in any replicate, the entry reads "no signal": below detection, most likely a poor binder, though not proof of it. Empty control strains, which show no peptide, gave a signal in 15% of pairings with library AAYL49; the median was 4.06 and 95% of these signals were weaker than 2.83. No background was subtracted.

* I34N Y60T F105H: no signal (0 of 3 replicates)
* I34K D54Q D62E: no signal (0 of 3 replicates)
* L29P I34G Y52P: 4.61 (1 of 3 replicates)
* I34Q R57M A101F: no signal (0 of 3 replicates)
* I34P V64T K65N: 3.95 (2 of 3 replicates)
* T28H I34E S107F: no signal (0 of 3 replicates)
* Y32G I34M: 3.71 (1 of 3 replicates)
* L29A I34R V50G: 4.50 (1 of 3 replicates)
* I34M V64E G103S: 5.11 (2 of 3 replicates)
* I34Y S53D V64L: no signal (0 of 3 replicates)
* I34E V50E F59G: 3.52 (1 of 3 replicates)
* I34M S53D Y60A: no signal (0 of 3 replicates)
* I34F D54Y G55T: no signal (0 of 3 replicates)
* I34C S53G G55I: no signal (0 of 3 replicates)
* I34T G61R: 3.19 (1 of 3 replicates)
* I34W R56I K65L: no signal (0 of 3 replicates)
* S31E I34S T104P: no signal (0 of 3 replicates)
* F27A I34D S63Q: 4.14 (2 of 3 replicates)
* I34R S35A R57G: 4.83 (1 of 3 replicates)
* L29E I34Y R57F: no signal (0 of 3 replicates)
* I34A R56N V64N: 4.93 (1 of 3 replicates)
* I34H R56S S63Y: no signal (0 of 3 replicates)
* I34Q T58F: 3.88 (2 of 3 replicates)
* I34L Y52A T58W: 6.51 (1 of 3 replicates)
* I34T D62T G99W: 5.12 (3 of 3 replicates)
* T28L I34W Y52R: no signal (0 of 3 replicates)
* I34R S35A D62M: 4.26 (1 of 3 replicates)
* I34N S63D F105S: no signal (0 of 3 replicates)
* I34S A102Q G103L: no signal (0 of 3 replicates)
* I34D I51M Y60M: 3.88 (3 of 3 replicates)
* I34V V50A: 3.86 (1 of 3 replicates)
* I34F R57K G99E: no signal (0 of 3 replicates)
* I34N D54A A102F: no signal (0 of 3 replicates)
* I34L K65L: 3.74 (3 of 3 replicates)
* L29P N30L I34E: no signal (0 of 3 replicates)
* G26L F27H I34F: 3.75 (3 of 3 replicates)
* F27H I34P T58S: 4.21 (1 of 3 replicates)
* T28V I34G: no signal (0 of 3 replicates)
* I34N G61S A102W: 4.54 (2 of 3 replicates)
* I34K R100G F105W: no signal (0 of 3 replicates)
* F27Y I34S G61E: no signal (0 of 3 replicates)
* T28M I34Q F59D: 3.30 (3 of 3 replicates)
* I34Q Y60K S63C: 4.69 (1 of 3 replicates)
* I34Y V50H D106T: no signal (0 of 3 replicates)
* I34F V64T D106Q: 3.84 (1 of 3 replicates)
* F27I I34A G103S: no signal (0 of 3 replicates)

The opening 3 entries, copied out:

changes	mean, log10 nM	detected
I34N Y60T F105H	no signal	0 of 3
I34K D54Q D62E	no signal	0 of 3
L29P I34G Y52P	4.61	1 of 3

For reference, the parent read 0.65 as the reference entry and 4.11 (one replicate of three) as a member of this library.